According to publication PMC8352932, “Targeted activity of the small molecule kinase inhibitor Pz-1 towards RET and TRK kinases” (Scientific Reports, 2021):
Where “and” joins values, the source holds several entries; their conditions need not be identical. Equal values may be shown once.

Sequences of proteins named here, by UniProt entry; tags and fusion partners are left off. A change or cut given only in a name is not applied to a line headed by its entry. Residues count along the entry.
UniProt P04629, 33-796 limits assumed: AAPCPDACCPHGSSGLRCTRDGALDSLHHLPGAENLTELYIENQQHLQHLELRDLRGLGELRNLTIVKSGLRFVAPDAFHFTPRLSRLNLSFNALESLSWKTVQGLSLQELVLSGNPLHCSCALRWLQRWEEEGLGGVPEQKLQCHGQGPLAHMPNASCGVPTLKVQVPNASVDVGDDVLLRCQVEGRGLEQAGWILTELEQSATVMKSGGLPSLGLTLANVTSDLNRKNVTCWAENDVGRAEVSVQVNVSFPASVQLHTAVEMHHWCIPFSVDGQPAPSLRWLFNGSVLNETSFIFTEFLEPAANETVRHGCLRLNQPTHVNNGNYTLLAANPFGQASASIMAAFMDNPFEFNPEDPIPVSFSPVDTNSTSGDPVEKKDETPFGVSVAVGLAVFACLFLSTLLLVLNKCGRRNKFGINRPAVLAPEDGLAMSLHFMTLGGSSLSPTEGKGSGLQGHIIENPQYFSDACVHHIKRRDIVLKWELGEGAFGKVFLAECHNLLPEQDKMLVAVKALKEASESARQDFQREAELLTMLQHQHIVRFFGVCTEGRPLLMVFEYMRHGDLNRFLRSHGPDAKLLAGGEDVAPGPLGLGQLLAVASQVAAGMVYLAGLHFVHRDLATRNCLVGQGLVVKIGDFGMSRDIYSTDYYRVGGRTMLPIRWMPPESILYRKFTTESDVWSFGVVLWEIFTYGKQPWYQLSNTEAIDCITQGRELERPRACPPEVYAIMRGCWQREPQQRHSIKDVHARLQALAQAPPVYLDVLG
UniProt P35918, 20-1345 limits assumed: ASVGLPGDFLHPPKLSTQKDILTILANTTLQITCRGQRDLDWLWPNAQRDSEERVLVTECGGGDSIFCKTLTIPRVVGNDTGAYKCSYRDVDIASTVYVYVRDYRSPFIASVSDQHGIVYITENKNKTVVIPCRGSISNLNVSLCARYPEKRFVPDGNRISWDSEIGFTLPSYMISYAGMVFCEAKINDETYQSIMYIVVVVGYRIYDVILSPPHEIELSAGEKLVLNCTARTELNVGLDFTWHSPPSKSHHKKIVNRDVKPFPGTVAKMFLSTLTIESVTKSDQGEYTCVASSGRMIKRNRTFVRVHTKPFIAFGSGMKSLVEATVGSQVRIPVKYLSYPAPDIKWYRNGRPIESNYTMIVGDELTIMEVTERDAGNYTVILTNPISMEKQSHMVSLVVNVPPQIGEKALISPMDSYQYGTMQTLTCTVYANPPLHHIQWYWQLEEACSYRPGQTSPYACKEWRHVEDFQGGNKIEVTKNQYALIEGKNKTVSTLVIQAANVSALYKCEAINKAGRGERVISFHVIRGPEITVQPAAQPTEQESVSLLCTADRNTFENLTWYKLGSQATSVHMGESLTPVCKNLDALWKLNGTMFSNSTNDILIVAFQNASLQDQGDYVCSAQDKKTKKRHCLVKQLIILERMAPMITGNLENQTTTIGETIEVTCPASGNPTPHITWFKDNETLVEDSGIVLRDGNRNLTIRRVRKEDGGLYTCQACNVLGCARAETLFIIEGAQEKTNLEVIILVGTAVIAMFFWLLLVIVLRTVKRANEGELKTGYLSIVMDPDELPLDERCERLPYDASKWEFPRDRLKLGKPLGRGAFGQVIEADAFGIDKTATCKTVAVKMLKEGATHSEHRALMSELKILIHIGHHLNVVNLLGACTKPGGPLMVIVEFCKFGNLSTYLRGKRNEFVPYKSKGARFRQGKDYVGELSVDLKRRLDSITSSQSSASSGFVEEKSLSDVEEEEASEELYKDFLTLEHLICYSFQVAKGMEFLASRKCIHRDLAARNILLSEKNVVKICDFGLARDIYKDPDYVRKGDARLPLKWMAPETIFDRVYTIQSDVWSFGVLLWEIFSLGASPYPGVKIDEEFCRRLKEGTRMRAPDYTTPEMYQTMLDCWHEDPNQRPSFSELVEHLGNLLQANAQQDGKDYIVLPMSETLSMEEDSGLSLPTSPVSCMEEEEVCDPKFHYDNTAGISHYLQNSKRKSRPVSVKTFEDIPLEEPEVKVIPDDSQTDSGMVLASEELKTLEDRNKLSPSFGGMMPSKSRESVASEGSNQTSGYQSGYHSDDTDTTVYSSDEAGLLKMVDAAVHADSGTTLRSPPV
UniProt Q16620, 32-822 limits assumed: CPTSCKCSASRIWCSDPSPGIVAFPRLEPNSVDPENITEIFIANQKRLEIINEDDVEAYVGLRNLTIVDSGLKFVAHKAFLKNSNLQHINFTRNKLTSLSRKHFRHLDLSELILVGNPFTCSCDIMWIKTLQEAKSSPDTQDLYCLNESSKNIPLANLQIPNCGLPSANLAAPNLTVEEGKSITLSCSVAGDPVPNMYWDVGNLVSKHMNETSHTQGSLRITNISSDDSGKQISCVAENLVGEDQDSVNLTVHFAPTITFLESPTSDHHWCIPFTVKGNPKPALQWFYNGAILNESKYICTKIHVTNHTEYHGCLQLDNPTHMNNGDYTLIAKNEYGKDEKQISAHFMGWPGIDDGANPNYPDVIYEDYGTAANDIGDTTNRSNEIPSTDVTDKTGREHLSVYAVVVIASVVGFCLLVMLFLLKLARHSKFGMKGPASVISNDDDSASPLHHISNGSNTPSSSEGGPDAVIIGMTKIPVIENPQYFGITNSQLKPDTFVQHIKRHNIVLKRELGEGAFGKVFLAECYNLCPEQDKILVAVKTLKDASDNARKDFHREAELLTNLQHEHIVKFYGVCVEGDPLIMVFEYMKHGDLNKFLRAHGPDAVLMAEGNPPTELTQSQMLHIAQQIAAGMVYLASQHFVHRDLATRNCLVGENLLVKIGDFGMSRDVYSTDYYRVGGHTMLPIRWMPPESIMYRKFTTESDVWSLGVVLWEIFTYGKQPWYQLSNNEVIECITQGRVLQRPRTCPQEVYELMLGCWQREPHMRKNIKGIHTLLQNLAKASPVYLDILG
UniProt P07949, 713-1063 limits assumed: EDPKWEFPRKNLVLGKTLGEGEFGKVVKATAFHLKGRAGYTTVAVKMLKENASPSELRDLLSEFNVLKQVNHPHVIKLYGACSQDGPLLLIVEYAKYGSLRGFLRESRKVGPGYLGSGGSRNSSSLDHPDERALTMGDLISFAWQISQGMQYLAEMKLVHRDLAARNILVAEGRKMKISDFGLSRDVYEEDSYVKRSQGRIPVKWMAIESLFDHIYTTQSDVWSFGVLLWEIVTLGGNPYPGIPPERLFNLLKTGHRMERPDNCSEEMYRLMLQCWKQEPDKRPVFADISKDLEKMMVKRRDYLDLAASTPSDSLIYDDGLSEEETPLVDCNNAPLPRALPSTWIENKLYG
UniProt Q16288, 32-839 limits assumed: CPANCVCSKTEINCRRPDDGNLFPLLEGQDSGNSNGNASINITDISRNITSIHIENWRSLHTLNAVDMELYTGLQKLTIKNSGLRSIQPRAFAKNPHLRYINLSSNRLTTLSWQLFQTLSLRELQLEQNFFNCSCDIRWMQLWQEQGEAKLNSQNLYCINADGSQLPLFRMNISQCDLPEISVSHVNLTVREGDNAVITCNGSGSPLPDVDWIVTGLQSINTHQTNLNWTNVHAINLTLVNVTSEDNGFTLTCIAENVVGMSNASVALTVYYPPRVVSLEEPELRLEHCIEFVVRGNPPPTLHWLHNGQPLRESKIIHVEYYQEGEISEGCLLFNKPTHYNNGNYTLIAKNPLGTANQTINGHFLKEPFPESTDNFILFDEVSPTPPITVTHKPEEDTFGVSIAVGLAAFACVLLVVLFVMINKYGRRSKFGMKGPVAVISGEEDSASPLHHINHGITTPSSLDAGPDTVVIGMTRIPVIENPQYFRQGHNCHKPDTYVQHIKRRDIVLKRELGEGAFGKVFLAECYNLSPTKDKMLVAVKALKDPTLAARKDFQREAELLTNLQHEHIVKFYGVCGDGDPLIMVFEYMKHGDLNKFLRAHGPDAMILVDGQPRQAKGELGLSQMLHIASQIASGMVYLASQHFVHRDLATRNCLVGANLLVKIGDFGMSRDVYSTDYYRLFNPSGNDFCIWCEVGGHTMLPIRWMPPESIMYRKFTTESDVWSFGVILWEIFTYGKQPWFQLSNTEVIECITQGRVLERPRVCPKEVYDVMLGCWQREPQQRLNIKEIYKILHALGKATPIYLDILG

Experiments:
[1] = biological target: TRKA in KM12 cells (Homo sapiens, UniProt P04629+P06753); assay: TRKA autophosphorylation and signalling in KM12 cells (immunoblot); settings: 1 nM, 2 h
[2] = biological target: VEGFR2 (Mus musculus, UniProt P35918); assay: In vivo VEGFR2 phosphorylation in tumours; settings: 0.3 mg/kg; Pz-1 sensitive and resistant RET or TRKA-expressing NIH3T3 tumours
[3] = system: VEGFR2; assay: In vivo VEGFR2 phosphorylation in tumours; settings: 0.3, 1 or 3 mg/Kg; 8505C and HCT116 tumours
[4] = biological target: TRKA (Homo sapiens, UniProt P04629); assay: TRK binding assay (DiscoveRx), TRKA; settings: read-out: IC50 (abstract)
[5] = system: TT, MZ-CRC-1, TPC-1, Lc-2/ad, KM12 cells; assay: Cell viability, CellTiter 96 (MTS); settings: 1 nM, single dose, 48 and 72 h
[6] = system: NCOA4-RET / CCDC6-RET and NCOA4-RET mutants; assay: RET phosphorylation in transfected HEK 293 T cells (immunoblot); settings: for resistance to Pz-1 (phosphorylation): HEK 293 T, 2 h
[7] = biological target: TRKB (Homo sapiens, UniProt Q16620); assay: TRK binding assay (DiscoveRx), TRKB
[8] = system: SHC and ERK1/2 phosphorylation; assay: SHC and ERK1/2 phosphorylation in RET/TRKA-negative cells; settings: up to 100 nM; B-CPAP, 8505C, A549, PC-9, Calu-1, HCT-116 (Nthy-ori-3-1: ERK partially inhibited at 100 nM)
[9] = system: Ba/F3 cells expressing TPM3-TRKA, CCDC6-RET, RET C634R or RET M918T; assay: IL-3-independent growth of transformed Ba/F3; settings: read-out: IC50, IL-3-independent growth, range over TPM3-TRKA
[10] = system: RET-/TRKA-driven and negative cancer cell lines; assay: Cell cycle analysis by flow cytometry; settings: 48 h
[11] = system: human cancer cells carrying either RET- or TRKA oncoproteins; assay: Proliferation of human cancer cells, summary of the abstract; settings: read-out: IC50 proliferation
[12] = system: TPM3-TRKA and TPM3-TRKA mutants; assay: TRKA phosphorylation in transfected HEK 293 T cells (immunoblot); settings: 2 h
[13] = system: RET in TT, MZ-CRC-1, TPC-1, Lc-2/ad cells; assay: RET autophosphorylation in cancer cells (immunoblot); settings: 1 nM, 2 h; MTC, PTC and NSCLC cells
[14] = system: NCOA4-RET / CCDC6-RET and NCOA4-RET mutants; settings: RET V804M; cited from earlier work
[15] = system: NIH3T3 NCOA4-RET, NCOA4-RET G810R, TPM3-TRKA, TPM3-TRKA G595R cells; assay: Proliferation and phosphorylation in transformed NIH3T3 fibroblasts; settings: NIH3T3 transfectants
[16] = system: VEGFR2; settings: VEGFR2 kinase; cited from earlier work
[17] = biological target: RET phosphorylation in NIH3T3 NCOA4-RET tumours (Homo sapiens, UniProt P07949); assay: Time course in vivo target inhibition, RET; settings: single oral dose 0.3, 1 and 3 mg/kg; partially restored after 24 h
[18] = biological target: TRKC (Homo sapiens, UniProt Q16288); assay: TRK binding assay (DiscoveRx), TRKC; settings: read-out: IC50 (abstract)
[19] = biological target: TRKA phosphorylation in NIH3T3 TPM3-TRKA tumours (Homo sapiens, UniProt P04629+P06753); assay: Time course in vivo target inhibition, TRKA
[20] = system: 8505C tumours; assay: Xenograft tumour growth; settings: 25 days
[21] = system: NIH3T3 NCOA4-RET tumours; assay: Xenograft tumour growth; settings: 16 days
[22] = system: NIH3T3 TPM3-TRKA G595R tumours; assay: Xenograft tumour growth; settings: all the doses (0.3, 1, 3 mg/Kg) oral daily, 17 days
[23] = system: MZ-CRC-1 cells xenografts; assay: Xenograft tumour growth; settings: 28 days
[24] = system: NIH3T3 TPM3-TRKA tumours; assay: Xenograft tumour growth; settings: 17 days
[25] = system: NIH3T3 NCOA4-RET G810R tumours; assay: Xenograft tumour growth; settings: 16 days
[26] = system: TT cells xenografts; assay: Xenograft tumour growth; settings: 28 days
[27] = system: HCT-116 xenografts; assay: Xenograft tumour growth; settings: 37 days
[28] = system: KM12 cells xenografts; assay: Xenograft tumour growth; settings: 16 days
[29] = system: NCI-60 Human Tumour Cell Lines; assay: NCI 60 five-dose screen; assay type: cell-based
[30] = system: TT cells (RET C634W); assay: Growth curves, cell proliferation; settings: read-out: IC50 dose nM (95% CI), MTC
[31] = system: 8505C cells (BRAF V600E); assay: Growth curves, cell proliferation; settings: read-out: IC50 dose nM (95% CI), ATC
[32] = system: PC-9 cells (HER1 delLREA); assay: Growth curves, cell proliferation; settings: read-out: IC50 dose nM (95% CI), PC-9, NSCLC
[33] = system: MZ-CRC-1 cells (RET M918T); assay: Growth curves, cell proliferation; settings: read-out: IC50 dose nM (95% CI), MZ-CRC-1, MTC
[34] = system: KM12 cells (TPM3-TRKA); assay: Growth curves, cell proliferation; settings: read-out: IC50 dose nM (95% CI), KM12, CRC
[35] = system: A549 cells (KRAS G12S); assay: Growth curves, cell proliferation; settings: read-out: IC50 dose nM (95% CI), A549, NSCLC
[36] = system: Lc-2/ad cells (CCDC6-RET); assay: Growth curves, cell proliferation; settings: read-out: IC50 dose nM (95% CI), NSCLC
[37] = system: HCT-116 cells (KRAS G38A); assay: Growth curves, cell proliferation; settings: read-out: IC50 dose nM (95% CI), HCT-116, CRC
[38] = system: Nthy-ori-3-1 cells (SV40 LT); assay: Growth curves, cell proliferation; settings: read-out: IC50 dose nM (95% CI); Nthy-ori-3-1, SV40 LT
[39] = system: B-CPAP cells (BRAF V600E); assay: Growth curves, cell proliferation; settings: read-out: IC50 dose nM (95% CI), PTC
[40] = system: Calu-1 cells (KRAS G12C); assay: Growth curves, cell proliferation; settings: read-out: IC50 dose nM (95% CI), Calu-1, NSCLC

**Q.** Which “TRKA autophosphorylation and SHC and ERK1/2 phosphorylation” value [1] does the source give for `Cn1cc(-c2ccc3c(c2)ncn3-c2ccc(CC(=O)Nc3cc(C(C)(C)C)on3)cc2)cn1` here?
**A.** inhibited

**Q.** What about the “VEGFR2 inhibition in tumours” value [2] of the same compound?
**A.** already detectable

**Q.** What about the “VEGFR2 and downstream signalling in tumours” value [3] of the same compound?
**A.** displayed inhibition of VEGFR2 but not of SHC, MAPK or PLCγ

**Q.** And the IC50 [4]?
**A.** < 1 nM

**Q.** And the cell metabolic activity [5]?
**A.** modestly reduce

**Q.** What about the “resistance to Pz-1 (phosphorylation)” value ([6]; NCOA4-RET G810R) of the same compound?
**A.** > 25 fold

**Q.** What about the “resistance to Pz-1 (phosphorylation)” value ([6]; NCOA4-RET G810S) of the same compound?
**A.** > 5 fold

**Q.** What about the “sensitivity of RET mutants to Pz-1 inhibition” value ([6]; NCOA4-RET Y806N, L730I/V, E732K, V738A, S904F and all tested mutants except G810) of the same compound?
**A.** remained sensitive to Pz-1 inhibition

**Q.** What about the IC50 ([6]; read-out: half-maximal inhibitory Pz-1 dose, NCOA4-RET G810S, Fig. 6 and data not shown) of the same compound?
**A.** 5 nM

**Q.** And the Kd [7]?
**A.** < 1 nM and 0.78 nM

**Q.** What about the IC50 ([7]; read-out: IC50 (abstract)) of the same compound?
**A.** < 1 nM

**Q.** What about the “SHC and ERK1/2 phosphorylation” value [8] of the same compound?
**A.** No inhibition of SHC and ERK1/2 phosphorylation

**Q.** What about the IC50 [9] of the same compound?
**A.** 0.3 to 1.6 nM

**Q.** And the cell cycle distribution ([10]; 1 nM, RET-driven TPC-1, TT, MZ-CRC-1, Lc-2/ad)?
**A.** reduction of the percentage of cells in S and G2/M phases and an increase of cells in G0/G1 phase

**Q.** And the cell cycle distribution ([10]; 10 nM, KM12 (not in TRKA-negative HCT-116))?
**A.** strong reduction of S and G2/M phases

**Q.** And the cell cycle distribution ([10]; up to 100 nM, RET-negative B-CPAP, 8505C, Nthy-ori-3-1, A549, PC-9, Calu-1)?
**A.** basically unaffected

**Q.** And the IC50 [11]?
**A.** 1 nM

**Q.** And the “reduction of drug sensitivity (phosphorylation)” value ([12]; TPM3-TRKA F589L)?
**A.** about 10 folds

**Q.** And the “resistance to Pz-1 (phosphorylation)” value ([12]; TPM3-TRKA G595R)?
**A.** > 30 fold

**Q.** What about the “effect of mutation on sensitivity to Pz-1” value ([12]; TPM3-TRKA G667C) of the same compound?
**A.** did not affect sensitivity to Pz-1

**Q.** What about the RET autophosphorylation [13] of the same compound?
**A.** strongly inhibited

**Q.** And the “effect of gatekeeper mutation on Pz-1 activity” value [14]?
**A.** did not impair Pz-1 activity

**Q.** What about the “activity against NCOA4-RET relative to TPM3-TRKA” value [15] of the same compound?
**A.** about 5 folds

**Q.** What about the IC50 [16] of the same compound?
**A.** < 1 nM

**Q.** And the “time up to which RET was inhibited” value [17]?
**A.** 12 h

**Q.** What about the IC50 [18] of the same compound?
**A.** < 1 nM

**Q.** What about the “time after which TRKA phosphorylation was fully restored” value ([19]; single oral dose 0.3 mg/Kg) of the same compound?
**A.** 8 h

**Q.** And the “time after which TRKA phosphorylation was fully restored” value ([19]; single oral dose 1 and 3 mg/Kg)?
**A.** 12 h

**Q.** And the tumour growth inhibition ([20]; 0.3 mg/Kg oral daily)?
**A.** did not exert any detectable inhibition

**Q.** What about the tumour growth ([20]; 1 mg/Kg oral daily) of the same compound?
**A.** 50 % of the vehicle control

**Q.** What about the tumour growth ([20]; 3 mg/kg oral daily) of the same compound?
**A.** 50 % of the vehicle control

**Q.** What about the tumour growth ([21]; 0.3 mg/Kg oral daily) of the same compound?
**A.** completely block

**Q.** What about the tumour growth ([21]; 1 mg/Kg oral daily) of the same compound?
**A.** Complete tumour growth inhibition

**Q.** What about the tumour growth ([21]; 3 mg/Kg oral daily) of the same compound?
**A.** Complete tumour growth inhibition

**Q.** And the tumour growth [22]?
**A.** remained unaffected

**Q.** What about the tumour growth ([23]; 0.3 mg/Kg oral daily) of the same compound?
**A.** 36 % of the vehicle control

**Q.** What about the tumour growth ([23]; 1 mg/Kg oral daily) of the same compound?
**A.** 15 % of the vehicle

**Q.** What about the tumour growth ([24]; 0.3 mg/Kg oral daily) of the same compound?
**A.** but not TPM3-TRKA tumour growth

**Q.** What about the tumour growth ([24]; 1 mg/Kg oral daily) of the same compound?
**A.** Complete tumour growth inhibition

**Q.** What about the tumour growth ([24]; 3 mg/Kg oral daily) of the same compound?
**A.** Complete tumour growth inhibition

**Q.** What about the tumour growth ([25]; 0.3 mg/Kg oral daily) of the same compound?
**A.** remained virtually unaffected

**Q.** What about the tumour growth ([25]; 1 mg/Kg oral daily) of the same compound?
**A.** remained virtually unaffected

**Q.** And the “reduction of tumour volume” value ([25]; 3 mg/Kg oral daily)?
**A.** about 50%

**Q.** And the tumour growth ([26]; 0.3 mg/Kg oral daily)?
**A.** < 20 % of the vehicle control

**Q.** And the tumour growth ([26]; 1 mg/Kg oral daily)?
**A.** 15 % of the vehicle

**Q.** What about the tumour growth reduction ([27]; 0.6 mg/Kg oral daily) of the same compound?
**A.** 60 % reduction

**Q.** What about the tumour growth reduction ([27]; 3 mg/Kg oral daily) of the same compound?
**A.** 50 % reduction

**Q.** What about the tumour growth ([28]; 0.6 mg/Kg oral daily) of the same compound?
**A.** 35 % of the control

**Q.** What about the tumour growth ([28]; 3 mg/Kg oral daily) of the same compound?
**A.** 15 % of the control

**Q.** What about the growth inhibition ([29]; KM12, only such cell line of the panel) of the same compound?
**A.** strong growth inhibition at a low (2 digit) nM dose

**Q.** And the lethality ([29]; NCI 60 panel)?
**A.** No significant lethality was observed

**Q.** And the IC50 [30]?
**A.** 1 nM and 0.77 nM

**Q.** What about the IC50 [31] of the same compound?
**A.** > 100 nM

**Q.** What about the IC50 [32] of the same compound?
**A.** > 100 nM

**Q.** What about the IC50 [33] of the same compound?
**A.** 1 nM and 0.72 nM

**Q.** What about the IC50 [34] of the same compound?
**A.** 1.6 nM and 1.66 nM

**Q.** And the IC50 [35]?
**A.** > 100 nM

**Q.** What about the IC50 [36] of the same compound?
**A.** 1 nM and 0.52 nM

**Q.** And the IC50 [37]?
**A.** > 100 nM

**Q.** What about the IC50 [38] of the same compound?
**A.** > 100 nM

**Q.** What about the IC50 [39] of the same compound?
**A.** > 100 nM

**Q.** And the IC50 [40]?
**A.** > 100 nM
